Target: T1, r-NAAA (Rattus norvegicus, UniProt Q5KTC7)
T1 construct: Lysosomal NAAA protein preparation was obtained by homogenizing male Sprague-Dawley rat lungs; tissue Charles River (animals); host or cells: male Sprague-Dawley rat lung, soluble lysosomal fraction
T1 sequence (Q5KTC7 34-362): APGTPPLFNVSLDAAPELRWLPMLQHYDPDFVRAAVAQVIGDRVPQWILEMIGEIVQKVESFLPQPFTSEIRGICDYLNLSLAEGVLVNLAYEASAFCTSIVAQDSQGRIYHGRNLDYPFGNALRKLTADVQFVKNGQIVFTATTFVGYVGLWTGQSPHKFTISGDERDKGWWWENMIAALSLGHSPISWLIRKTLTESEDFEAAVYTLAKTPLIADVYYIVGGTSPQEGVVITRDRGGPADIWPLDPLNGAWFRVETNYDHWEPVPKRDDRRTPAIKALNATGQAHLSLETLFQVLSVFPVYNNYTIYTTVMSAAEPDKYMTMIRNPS
Assay: UPLC/MS r-NAAA assay
Type: biochemical

| IC50 | SMILES |
| --- | --- |
| 0.027 µM | O=C(N[C@H]1CNC1=O)OCCCCC1CCCCC1 [Example 5, 4-Cyclohexylbutyl-N-[(3S)-2-oxoazetidin-3-yl]-carbamate] |
| 8.4 µM | O=C(N[C@@H]1CNC1=O)OCCCCC1CCCCC1 [Example 6, 4-cyclohexylbutyl-N-[(3R)-2-oxoazetidin-3-yl]-carbamate] |

— patent US9828338B2, “Carbamate derivatives of lactam based N-acylethanolamine acid amidase (NAAA) inhibitors” (The Regents of the University of California, priority 2013, dated 2017)
